ChEMBL document CHEMBL4184341, “Structure-Based Design of Inhibitors with Improved Selectivity for Steroidogenic Cytochrome P450 17A1 over Cytochrome P450 21A2” (J Med Chem, 2018)

Protein sequences, listed by entry. Tags and fused reporters are not part of them.
UniProt P10635, whole entry: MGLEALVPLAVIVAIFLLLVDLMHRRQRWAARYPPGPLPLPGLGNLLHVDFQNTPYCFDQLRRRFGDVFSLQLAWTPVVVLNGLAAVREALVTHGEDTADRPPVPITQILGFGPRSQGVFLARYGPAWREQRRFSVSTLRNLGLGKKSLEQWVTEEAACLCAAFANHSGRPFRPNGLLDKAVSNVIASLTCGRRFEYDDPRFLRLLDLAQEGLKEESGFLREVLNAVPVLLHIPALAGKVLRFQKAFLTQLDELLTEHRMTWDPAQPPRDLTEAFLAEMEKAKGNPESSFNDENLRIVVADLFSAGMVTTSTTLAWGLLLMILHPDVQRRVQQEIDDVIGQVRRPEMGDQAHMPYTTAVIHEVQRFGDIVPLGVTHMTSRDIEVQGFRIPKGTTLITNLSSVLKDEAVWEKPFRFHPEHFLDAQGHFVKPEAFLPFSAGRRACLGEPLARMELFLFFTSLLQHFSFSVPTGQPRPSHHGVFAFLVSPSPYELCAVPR

Tests used:
Homo sapiens = organism: Homo sapiens; experiment: Selectivity ratio of IC50 for C-terminal His-tagged recombinant human CYP21A2deltaH mutant to IC50 for C-terminal His-tagged recombinant human CYP17A1delta19H mutant
Cytochrome P450 2D6 = Cytochrome P450 2D6 (Homo sapiens, UniProt P10635); experiment: Inhibition of C-terminal His-tagged recombinant human CYP2D6 assessed as decrease in metabolism of dextromethorphan up to 640 nM; type: ADME; conditions: recombinant enzyme

Row | Compound | Ratio IC50 (Homo sapiens) | inhibition (INH) (Cytochrome P450 2D6)
1 | C[C@]12CCC(=O)C=C1CC[C@@H]1[C@@H]2CC[C@]2(C)C(c3cccnc3)=CC[C@@H]12 | 0.11 | –
2 | C[C@]12CC[C@H](O)CC1=CC[C@@H]1[C@@H]2CC[C@]2(C)C(c3cccnc3)=CC[C@@H]12 [ABIRATERONE] | – | Not Active
